Assays:
[1] = Stability in citrated human blood; conditions: 5 hours incubation at 37° C. in citrated human blood, 50 μM
[2] = Stability in citrated human plasma; conditions: 5 hours incubation at 37° C. in citrated human plasma (pH7), 50 μM
Procedure: The drug conjugates (50 μM) were mixed with human plasma and incubated for 5 hours at 37° C. in a water bath. […] Supernatant was collected.

Row | Substance | % metabolites released: Dox [1] [%] | % metabolites released: GP-dox [1] [%] | % metabolites released: P-Dox [1] [%] | total % metabolites [1] [%] | % metabolites released: Dox [2] [%] | % metabolites released: GP-dox [2] [%] | % metabolites released: P-Dox [2] [%] | total % metabolites [2] [%]
1 | PhAc-KLGP-doxorubicin | 2 | 1 | 0 | 8 |  |  |  | 
2 | PhAc-GPGP-doxorubicin |  |  |  |  | 6 | 0 | 0 | 6
3 | PhAc-TSGP-doxorubicin |  |  |  |  | 4 | 4 | 0 | 8
4 | PhAc-DLGP-doxorubicin | 2 | 0 | 2 | 4 | 2 | 0 | 1 | 3

— US10076576B2, “Minimally toxic prodrugs” (priority 2012, dated 2018)
